Molecules are shown by their SMILES.

The first test concerns the target T1, human glucocorticoid receptor-α [GRX] isoform (Homo sapiens, UniProt P04150).
T1 construct: host or cells: insect SF21 cells (baculovirus)
T1 sequence (P04150 1-777): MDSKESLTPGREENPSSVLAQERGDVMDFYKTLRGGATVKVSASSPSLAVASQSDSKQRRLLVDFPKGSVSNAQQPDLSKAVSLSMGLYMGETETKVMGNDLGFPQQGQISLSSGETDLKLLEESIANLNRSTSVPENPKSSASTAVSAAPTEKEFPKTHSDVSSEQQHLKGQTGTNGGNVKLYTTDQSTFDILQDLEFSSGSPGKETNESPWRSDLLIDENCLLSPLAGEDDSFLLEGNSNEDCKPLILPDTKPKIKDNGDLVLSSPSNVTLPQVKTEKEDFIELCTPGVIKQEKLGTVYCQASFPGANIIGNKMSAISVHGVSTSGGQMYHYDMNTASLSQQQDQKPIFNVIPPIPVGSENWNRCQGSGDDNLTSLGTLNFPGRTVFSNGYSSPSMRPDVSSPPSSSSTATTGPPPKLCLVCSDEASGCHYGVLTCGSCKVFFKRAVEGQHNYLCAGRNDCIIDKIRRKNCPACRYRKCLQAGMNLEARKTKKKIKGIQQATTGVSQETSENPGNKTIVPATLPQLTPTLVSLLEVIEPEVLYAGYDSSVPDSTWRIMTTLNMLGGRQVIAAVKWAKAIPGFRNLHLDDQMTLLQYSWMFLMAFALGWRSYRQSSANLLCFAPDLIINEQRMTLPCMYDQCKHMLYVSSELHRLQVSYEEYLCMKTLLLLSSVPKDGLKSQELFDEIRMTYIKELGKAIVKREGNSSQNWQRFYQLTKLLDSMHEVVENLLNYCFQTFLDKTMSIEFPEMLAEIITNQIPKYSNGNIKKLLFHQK
The experiment in a line: Radioligand binding with human glucocorticoid receptor cytosol ([3H]-dexamethasone competition). To be noted: GRX cytosol expressed in insect SF21 cells, [3H]-Dex ~0.9 nM, 4° C. overnight; Ki by Cheng-Prusoff, KL ~1.5 nM; read-out: Ki (nM) GR.
In general, Ki refers to a measure of affinity in units of concentration, obtained from inhibition or displacement. For `COc1c(O)ccc2c1-c1ccc3c(c1C(c1cccs1)O2)C(C)=CC(C)(C)N3` (stereo not shown) [Example 274, 2,5-Dihydro-9-hydroxy-10-methoxy-2,2,4-trimethyl-5-(2-thienyl)-1H-[1]benzopyrano[3,4-f]quinoline], the Ki was 0.69 nM.
For `C=CCOc1ccc2c(c1OC)-c1ccc3c(c1C(CC=C)O2)C(C)=CC(C)(C)N3` (stereo not shown) [Example 293, 10-Methoxy-9-(3-propenyloxy)-5-(3-propenyl)-2,2,4-trimethyl-1H-2,5-dihydro[1]benzopyrano[3,4-f]quinoline], the Ki was 12 nM.
Take `C=CCC1Oc2cccc(Cl)c2-c2ccc3c(c21)C(C)=CC(C)(C)N3` (stereo not shown) [Example 309, 10-Chloro-5-(3-propenyl)-2,2,4-trimethyl-2,5-dihydro-1H-[1]benzopyrano[3,4-f]quinoline]: the inhibition constant (Ki) is 1.9 nM.
With `COC(=O)CN(C)C(=O)Oc1cccc(C2Oc3cccc(OC)c3-c3ccc4c(c32)C(C)=CC(C)(C)N4)c1` (stereo not shown) [Example 311, 2,5-Dihydro-10-methoxy-5-(3-(N-methyl-N-(carbomethoxymethyl)aminocarbonyloxy)phenyl)-2,2,4-trimethyl-1H-[1]benzopyrano[3,4-f]quinoline], the Ki worked out at 15 nM.
Same read-out and setting: with `C=CCC1Oc2cccc(CO)c2-c2ccc3c(c21)C(C)=CC(C)(C)N3` (stereo not shown) [Example 329, 2,5-Dihydro-10-(2-hydroxymethyl)-5-(3-propenyl)-2,2,4-trimethyl-1H-[1]benzopyrano[3,4-f]quinoline] the figure was 2.2 nM; with `C=CCC1Oc2cccc(C=O)c2-c2ccc3c(c21)C(C)=CC(C)(C)N3` (stereo not shown) [Example 330, 2,5-Dihydro-10-formyl-5-(3-propenyl)-2,2,4-trimethyl-1H-[1]benzopyrano[3,4-f]quinoline], 2.2 nM.
For the compound `COc1c(O)ccc2c1-c1ccc3c(c1/C(=C/c1ccccc1)O2)C(C)=CC(C)(C)N3` [Example 365, Z-5-(Benzylidenyl)-9-hydroxy-10-methoxy-2,2,4-trimethyl-1H-2,5-dihydro], the inhibitory constant (Ki) came to 2.2 nM.
On the same count and under the same terms, with `CC1=CC(C)(C)Nc2ccc3c(c21)/C(=C/c1cccc(F)c1)Oc1ccc(O)c(Cl)c1-3` [Example 367, Z-5-(3-Fluorobenzylidenyl)-10-chloro-9-hydroxy-2,2,4-trimethyl-2,5-dihydro-1H-[1]benzopyrano[3,4-f]quinoline] the figure was 2.2 nM; with `COc1c(O)ccc2c1-c1ccc3c(c1C(Cc1cc(F)cc(F)c1)O2)C(C)=CC(C)(C)N3` (stereo not shown) [Example 382, 2,5-Dihydro-9-hydroxy-10-methoxy-2,2,4-trimethyl-5-(3-5-difluorophenylmethyl)-1H-[1]benzopyrano[3,4-f]quinoline], 2.2 nM.

The test is the same for the next values; noted with them: read-out: Ki (nM) GR.
Take `C=CCC1Oc2ccc(F)c(OC)c2-c2ccc3c(c21)C(C)=CC(C)(C)N3` (stereo not shown) [Example 234, 10-Methoxy-9-fluoro-5-(3-propenyl)-2,2,4-trimethyl-1H-2,5-dihydro-[1]benzopyrano[3,4-f]quinoline]: the Ki stood at 3.8 nM.

The target of another test is T2, human progesterone receptor-A [PRA] isoform (Homo sapiens, UniProt P06401).
T2 construct: host or cells: insect SF21 cells (baculovirus)
T2 sequence (P06401 1-769 isoform P06401-2): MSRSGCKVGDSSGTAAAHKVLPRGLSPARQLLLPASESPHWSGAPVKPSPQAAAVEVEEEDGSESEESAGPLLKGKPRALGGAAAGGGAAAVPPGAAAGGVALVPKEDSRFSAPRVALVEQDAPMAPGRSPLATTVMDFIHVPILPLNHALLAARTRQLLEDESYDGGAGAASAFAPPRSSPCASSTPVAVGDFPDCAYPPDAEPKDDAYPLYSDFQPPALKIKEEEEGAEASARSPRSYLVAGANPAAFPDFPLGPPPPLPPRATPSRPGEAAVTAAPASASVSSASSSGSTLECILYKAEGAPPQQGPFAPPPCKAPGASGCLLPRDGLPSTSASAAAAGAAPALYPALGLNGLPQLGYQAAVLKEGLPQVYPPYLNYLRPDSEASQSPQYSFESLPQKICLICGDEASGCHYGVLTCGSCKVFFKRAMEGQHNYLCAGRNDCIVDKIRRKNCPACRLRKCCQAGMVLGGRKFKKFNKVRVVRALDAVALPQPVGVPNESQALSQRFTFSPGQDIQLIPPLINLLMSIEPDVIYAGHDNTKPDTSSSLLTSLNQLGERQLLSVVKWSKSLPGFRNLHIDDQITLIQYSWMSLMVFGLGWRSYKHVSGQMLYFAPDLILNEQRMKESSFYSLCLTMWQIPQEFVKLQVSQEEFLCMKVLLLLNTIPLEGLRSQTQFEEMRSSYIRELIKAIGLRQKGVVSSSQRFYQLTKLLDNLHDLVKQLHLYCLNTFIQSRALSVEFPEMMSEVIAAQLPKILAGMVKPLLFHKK
The experiment in a line: Radioligand binding with human progesterone receptor cytosol ([3H]-progesterone competition). Conditions: PRA cytosol expressed in insect SF21 cells, [3H]Prog ~0.8 nM, 4° C. overnight; Ki by Cheng-Prusoff, KL ~4.5 nM; read-out: Ki (nM) PR.
For `COc1c(O)ccc2c1-c1ccc3c(c1[C@@H](C1CCCC1)O2)C(C)=CC(C)(C)N3` [Example 265, (+)(R)5-Cyclopentyl-2,5-dihydro-9-hydroxy-10-methoxy-2,2,4-trimethyl-1H-[1]benzopyrano[3,4-f]quinoline], the inhibitory constant (Ki) was 1500 nM.
Still for that read-out and setting: the result for `COc1cccc2c1-c1ccc3c(c1[C@H]([C@@H]1C=CCCC1)O2)C(C)=CC(C)(C)N3` [Example 391, (−)(5S,3′S)2,5-Dihydro-10-methoxy-2,2,4-trimethyl-5-(cyclohexen-3-yl)-1H-[1]benzopyrano[3,4-f]quinoline] reads 1090 nM.

Staying with this test, now noted: read-out: Ki (nM) PR.
`C=CCC1Oc2ccc(F)c(OC)c2-c2ccc3c(c21)C(C)=CC(C)(C)N3` (stereo not shown) [Example 234, 10-Methoxy-9-fluoro-5-(3-propenyl)-2,2,4-trimethyl-1H-2,5-dihydro-[1]benzopyrano[3,4-f]quinoline]: the Ki was found to be 202 nM.

The record behind these values is patent publication US6506766B1 (Abbott Laboratories, priority 1998, dated 2003).
